The target of this test is recombinant GSK3β kinase (Homo sapiens (Human), UniProt P49841). The test is described as follows: GSK3β kinase assay (Ser/Thr 09 peptide Z-lyte FRET).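 Further: kinase activity read as coumarin to fluorescein emission ratio, 11-point threefold dilutions from 10 µM to 0.0003 µM in duplicate, unphosphorylated and phosphorylated peptide as 0% and 100% controls.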 Format: biochemical. The conditions noted are these: 46 μM ATP, 1 h room temperature.

Protein sequences, listed by entry. Tags and fused reporters are not part of them. Lines headed by an entry give the natural chain unless they say otherwise; changes in a name come on top.
UniProt P49841: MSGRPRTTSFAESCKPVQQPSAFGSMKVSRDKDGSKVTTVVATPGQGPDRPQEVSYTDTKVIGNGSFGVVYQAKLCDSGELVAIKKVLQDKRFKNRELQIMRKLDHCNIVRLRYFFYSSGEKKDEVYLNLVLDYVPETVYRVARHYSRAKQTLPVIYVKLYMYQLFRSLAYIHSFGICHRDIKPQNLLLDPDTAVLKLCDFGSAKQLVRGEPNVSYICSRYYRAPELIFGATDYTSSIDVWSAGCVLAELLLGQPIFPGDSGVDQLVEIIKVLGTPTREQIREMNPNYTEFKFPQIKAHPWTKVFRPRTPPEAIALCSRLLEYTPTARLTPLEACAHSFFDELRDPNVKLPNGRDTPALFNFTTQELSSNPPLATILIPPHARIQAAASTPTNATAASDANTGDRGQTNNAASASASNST

pEC50: −log10 of the molar value.

The term pEC50 denotes the EC50 on a negative log10 scale, so that one unit is a factor of ten. In the case of `CC(C)CN1CCC(C(=O)Nc2cc3cc(-c4cnn(C)c4)ccc3cn2)CC1` [Compound 77, 1-Isobutyl-N-(6-(1-methyl-1H-pyrazol-4-yl)isoquinolin-3-yl)piperidine-4-carboxamide], the negative logarithm of the EC50 (pEC50) was 7.62.

Regarding `Cn1cc(-c2ccc3cnc(NC(=O)C4CCN(S(C)(=O)=O)CC4)cc3c2)cn1` [Compound 330, N-(6-(1-Methyl-1H-pyrazol-4-yl)isoquinolin-3-yl)-1-(methylsulfonyl) piperidine-4-carboxamide], the pEC50 is 7.82.

As to `[2H]C([2H])([2H])n1cc(-c2ccc3cnc(NC(=O)C4CCN(CC(C)C)CC4)cc3c2)cn1` [Compound 972, 1-Isobutyl-N-(6-(1-(methyl-d3)-1H-pyrazol-4-yl)isoquinolin-3-yl)piperidine-4-carboxamide], the negative-log EC50 (pEC50) is 7.19.

On to `[2H]C([2H])([2H])C([2H])(C([2H])([2H])[2H])C([2H])([2H])N1CCC(C(=O)Nc2cc3cc(-c4cnn(C)c4)ccc3cn2)CC1` [Compound 1086, N-(6-(1-Methyl-1H-pyrazol-4-yl)isoquinolin-3-yl)-1-(2-(methyl-d3)propyl-1,1,2,3,3,3-d6)piperidine-4-carboxamide], for which the pEC50 is 7.55.

Turning to `[2H]c1nc(NC(=O)C2CCN(CC(C)C)CC2)cc2cc(-c3cnn(C)c3)ccc12` [Compound 1087, 1-Isobutyl-N-(6-(1-methyl-1H-pyrazol-4-yl)isoquinolin-3-yl-1-d)piperidine-4-carboxamide], the pEC50 is 7.43.
